From patent US20080207574A1 (UNIVERSITY OF KENTUCKY RESEARCH FOUNDATION, published 2008)

Target: 43 kDa β-actin (bovine, UniProt P60712 2-375)
Assay: co-isolation from BAEC lysate on NEUTRAVIDIN affinity column by way of WFA-B-labelled vimentin, SDS-PAGE with Coomassie stain

binding result: binds
B1: vimentin (56 kDa protein) from bovine aortic endothelial cells, modified by WFA-B (other)
chain: STRSVSSSSYRRMFGGPGTASRPSSTRSYVTTSTRTYSLGSALRPTTSRTLYTSSPGGVYATRSSAVRLRSGVPGVRLLQDSVDFSLADAINTEFKNTRTNEKVELQELNDRFANYIDKVRFLEQQNKILLAELEQLKGQGKSRLGDLYEEEMRELRRQVDQLTNDKARVEVERDNLAEDIMRLREKLQEEMLQREEAESTLQSFRQDVDNASLARLDLERKVESLQEEIAFLKKLHDEEIQELQAQIQEQHVQIDMDVSKPDLTAALRDVRQQYESVAAKNLQEAEEWYKSKFADLSEAANRNNDALRQAKQESNEYRRQVQTLTCEVDALKGTNESLERQMREMEENFSVEAANYQDTIGRLQDEIQNMKEEMARHLREYQDLLNVKMALDIEIATYRKLLEGEESRISLPLPNFSSLNLRETNLDSLPLVDTHSKRTLLIKTVETRDGQVINETSQHHDDLE
modifications: covalent adduct of the biotinylated withaferin A analog WFA-B; the filing maps the WFA adduct to the sole cysteine (position 327 in hamster vimentin, 328 in human vimentin); not mapped on the bovine protein
notes: Endogenous full-length protein from a cell lysate; also called WFA-B-modified vimentin; intermediate filament type III protein vimentin
